Measured values reported in patent US20080161247A1, “Synergistic composition for modulating activity of substrate analogs for NAD+, NADP+, NADH or NADPH dependent enzymes and process thereof” (priority 2006, published 2008).
Read-outs that look alike come from different tables or passages of the source.

The chains behind the UniProt entries cited, without tags or fusion partners.
UniProt Q9BH77, entry or part of it: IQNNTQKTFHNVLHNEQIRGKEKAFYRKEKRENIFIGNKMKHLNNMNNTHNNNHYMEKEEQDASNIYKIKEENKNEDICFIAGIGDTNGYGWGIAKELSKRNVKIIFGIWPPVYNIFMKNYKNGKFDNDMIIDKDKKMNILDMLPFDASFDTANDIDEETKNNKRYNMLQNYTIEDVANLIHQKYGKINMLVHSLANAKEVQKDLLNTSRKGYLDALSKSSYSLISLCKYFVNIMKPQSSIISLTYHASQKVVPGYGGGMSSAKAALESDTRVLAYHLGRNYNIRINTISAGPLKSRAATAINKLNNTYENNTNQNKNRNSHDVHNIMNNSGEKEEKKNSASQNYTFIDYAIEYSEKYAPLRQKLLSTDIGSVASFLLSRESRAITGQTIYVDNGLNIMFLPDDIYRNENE

Key:
PfENR [1] = target: T1, PfENR (Plasmodium falciparum, UniProt Q9BH77); assay type: binding
T1 construct: The overexpression of PfENR was carried out [22]; made in house
Description: Binding studies of [^3H] […] Briefly, for gel filtration chromatography, 2 ml Sephadex G-25 column was packed and equilibrated with the reaction buffer. For each run 50 μl of the reaction mixture was loaded and 20 fractions of 100 μl were collected at 0.25 ml/min flow rate. All the fractions were spotted on Whatman 3 filter paper and dried before taking the counts. In the filter binding assay method, the reaction mixtures were directly applied on the activated Polyvinylidene difluoride (PVDF) membrane fixed in a filtration assembly. The filters were washed with 200 μl of reaction buffer and dried. Dried filters were transferred to vials containing 5 ml scintillation fluid and the radioactivity measured using a Hewlett Packard liquid scintillation counter.
To check the binding of [^3H] […] The concentration of [^3H]
[^3H] […] (FIG. 4d) Double reciprocal plot of the same data is shown in the inset.
The binding constants for the above experiments were determined from saturation plots and by Scatchard plot or double reciprocal plot using equation 2a and 2b described under evaluation section.

PfENR [2] = target: T1, PfENR; assay type: biochemical
Description: The reaction was started by the addition of 50 nM of PfENR.
The reaction was monitored at 340 nm and the formation of (NAD^+) was plotted as a function of time using equation 3 to get the dissociation constant by non-linear regression analysis of the data.
Progress curves gave the value of kobs and the k5 or association rate constants were determined by fitting the values of kobs with experimentally determined k6 values in equation 4.
The relationship between Ki, k5, k6 and kobs is described by equation 4.
The overall inhibition constant Ki* is calculated by equation 5.

Substance: (−) epigallocatechin gallate [EGCG]
- Kd (PfENR [1]; read-out: Kd of EGCG in the presence of triclosan, Scatchard plot, 10 μM triclosan): 77.6 ± 5.3 nM
- Kd (PfENR [1]; read-out: dissociation constant of [3H]EGCG with PfENR, Scatchard plot, absence of triclosan): 512 ± 28.8 nM
- Kd (PfENR [1]; read-out: dissociation constant of [3H]EGCG with PfENR, saturation kinetics, absence of triclosan, filter binding): 438 ± 8.2 nM
- Association rate constant k5 of triclosan (PfENR [2]; triclosan with PfENR in presence of the catechin): 8.4 ± 0.24 [10^−3]s^−1
- Dissociation rate constant [k6] of k5 of TCL, [10^−5] s^−1 (PfENR [2]; triclosan, dilution method, in presence of the catechin named in the row): 1.6 ± 0.078 [10^−5] s^−1
